Patent US9532990B2 (Zhejiang DTRM Biopharma Co. Ltd., priority 2014, dated 2017)

Chains of the proteins cited; added tags and fusions are not shown. Lines headed by an entry give the natural chain unless they say otherwise; changes in a name come on top.
UniProt Q06187: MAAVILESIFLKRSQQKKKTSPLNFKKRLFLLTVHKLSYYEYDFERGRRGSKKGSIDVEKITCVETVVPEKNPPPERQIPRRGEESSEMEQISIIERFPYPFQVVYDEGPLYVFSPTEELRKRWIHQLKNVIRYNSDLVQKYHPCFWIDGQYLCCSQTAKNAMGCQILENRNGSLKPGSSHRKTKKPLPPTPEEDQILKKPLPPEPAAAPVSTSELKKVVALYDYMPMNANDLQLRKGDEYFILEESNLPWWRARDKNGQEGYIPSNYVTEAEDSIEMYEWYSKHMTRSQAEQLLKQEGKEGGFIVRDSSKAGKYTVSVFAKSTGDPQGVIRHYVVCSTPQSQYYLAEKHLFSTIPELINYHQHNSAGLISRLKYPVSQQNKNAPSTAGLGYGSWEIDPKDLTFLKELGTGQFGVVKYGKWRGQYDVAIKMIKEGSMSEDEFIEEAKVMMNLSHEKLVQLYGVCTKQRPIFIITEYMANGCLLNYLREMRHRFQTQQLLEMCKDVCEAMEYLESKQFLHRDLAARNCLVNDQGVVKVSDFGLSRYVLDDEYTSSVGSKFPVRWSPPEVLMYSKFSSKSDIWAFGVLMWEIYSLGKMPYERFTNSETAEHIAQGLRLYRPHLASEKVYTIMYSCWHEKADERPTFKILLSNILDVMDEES

The compounds below were run against BTK wild type (Homo sapiens (Human), UniProt Q06187) (assay: Inhibition assay of BTK kinase activity (HTRF)).
Format: biochemical

Point of comparison: C=CC(=O)N1CC[C@@H](n2nc(-c3ccc(Oc4c(F)c(F)cc(F)c4F)cc3F)c3c(N)ncnc32)C1 [Compound 45, 1-((R)-3-(4-amino-3-(2-fluoro-4-(2,3,5,6-tetrafluorophenoxy)phenyl)-1H-pyrazolo[3,4-d]pyrimidin-1-yl)pyrrolidin-1-yl)prop-2-en-1-one], IC50 0.5 nM. Against it:
- C=CC(=O)N1CC[C@@H](n2nc(-c3ccc(C(=O)c4cccc(F)c4)cc3F)c3c(N)ncnc32)C1 [Compound 73, 1-((R)-3-(4-amino-3-(2-fluoro-4-(3-fluorobenzoyl)phenyl)-1H-pyrazolo[3,4-d]pyrimidin-1-yl)pyrrolidin-1-yl)prop-2-en-1-one] — 12-fold higher, 6 nM
- C=CC(=O)N1CCC(n2nc(-c3ccc(Oc4c(F)c(F)cc(F)c4F)cc3F)c3c(N)ncnc32)C1 (stereo not drawn) [Compound 23, 1-(3-(4-amino-3-(2-fluoro-4-(2,3,5,6-tetrafluorophenoxy)phenyl)-1H-pyrazolo[3,4-d]pyrimidin-1-yl)pyrrolidin-1-yl)prop-2-en-1-one] — 6-fold higher, 3 nM
